This note sets out measurements from US20080085884A1, “Melanin Concentrating Hormone Receptor-1 Antagonist Pyridinones” (Pfizer Inc, priority 2006, published 2008).

The chains behind the UniProt entries cited, without tags or fusion partners.
UniProt Q99705, whole entry: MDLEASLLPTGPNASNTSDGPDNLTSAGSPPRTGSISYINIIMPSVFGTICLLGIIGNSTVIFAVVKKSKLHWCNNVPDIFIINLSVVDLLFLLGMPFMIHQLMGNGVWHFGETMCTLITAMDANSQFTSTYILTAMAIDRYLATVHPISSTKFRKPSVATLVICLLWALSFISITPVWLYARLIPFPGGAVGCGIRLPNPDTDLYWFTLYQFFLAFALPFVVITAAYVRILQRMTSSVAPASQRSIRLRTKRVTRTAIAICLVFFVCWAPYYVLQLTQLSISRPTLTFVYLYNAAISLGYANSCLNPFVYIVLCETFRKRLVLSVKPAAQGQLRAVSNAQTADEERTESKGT

In general, Ki refers to the equilibrium dissociation constant of an inhibitor or competing ligand from its target.

The experiment has as its target human MCHR1 (Homo sapiens, UniProt Q99705). Description: Cyclic AMP assay (MCHR-1 functional antagonism). Conditions: read-out: MCHR-1 functional Ki; CHO cells stably expressing human MCHR1; cAMP accumulation with 25 uM forskolin and 0.2 nM MCH, 90 min; Ki from IC50 by Cheng-Prusoff. (In general: cAMP levels reflect the balance of adenylyl cyclase and phosphodiesterase activity.)
`CN[C@@H]1CN(c2ccc(-n3ccc(OCc4ccccc4)cc3=O)cn2)C[C@H]1O` (relative stereo): the Ki turned out to be 188 nM.
In the case of `N[C@]12CCCC[C@H]1CN(c1ccc(-n3ccc(OCc4ccccc4)cc3=O)cn1)C2` (relative stereo) [229] it was 2480 nM.
With `O=c1cc(OCc2ccc(Cl)cc2)ccn1-c1ccc(N2C[C@H](O)[C@@H](N3CCCCC3)C2)nc1` (relative stereo), the Ki amounted to 25.8 nM.
As to `CN[C@@H]1CN(c2ccc(-n3ccc(OCc4ccc(F)cc4)cc3=O)cn2)C[C@H]1O` (relative stereo), the Ki was 133 nM.
Consider `O=c1cc(OCc2ccccc2)ccn1-c1ccc(N2CC[C@@H](O)C2)nc1` [Example 11, 4-(Benzyloxy)-6′-[(3R)-3hydroxypyrrolidin-1-yl]-2H-1,3′-bipyridin-2-one], for which the Ki was determined as 3840 nM.
In the case of `CC(C)(C)OC(=O)N1CCC[C@H]2CN(c3ccc(-n4ccc(OCc5ccccc5)cc4=O)cn3)C[C@H]21` it was 16.8 nM; in that of `CC(=O)N1C[C@@H]2CCN(c3ccc(-n4ccc(OCc5ccccc5)cc4=O)cn3)[C@@H]2C1` (relative stereo), 201 nM.
Regarding `O=c1cc(OCc2ccccc2)ccn1-c1ccc(N2CC[C@@H]3CNC[C@@H]32)nc1` (relative stereo), the Ki was 5.92 nM.
The result for `CC(=O)N(C)[C@@H]1CCN(c2ccc(-n3ccc(OCc4ccccc4)cc3=O)cn2)C1` reads 15.9 nM; that for `CC(=O)N1CCC[C@H]2CN(c3ccc(-n4ccc(OCc5ccccc5)cc4=O)cn3)C[C@H]21`, 83.8 nM.
`O=c1cc(OCc2ccccc2)ccn1-c1ccc(N2CCC(N3CCC3)C2)nc1` (single isomer, unassigned) [62a]: the Ki was 16.8 nM.
In the case of `O=c1cc(OCc2ccccc2)ccn1-c1ccc(N2CCN3CCC[C@H]3C2)nc1` it was 141 nM.
